We go through one compound from US20210114973A1, “PHARMACEUTICAL FORMULATIONS” (First Wave Bio, Inc., priority 2019, published 2021).

The nature of the data set: Effect of particle size on colonic exposure levels: single rectal dose of niclosamide suspension, blood and rectal mucosa samples. Conditions: rabbit, colon tissue, other: rectal, 7.5 mg.

Compound `O=C(Nc1ccc([N+](=O)[O-])cc1Cl)c1cc(Cl)ccc1O` [milled niclosamide, 5-chloro-N-(2-chloro-4-nitrophenyl)-2-hydroxybenzamide] registered a concentration at 1 h of 5030 ng/mL.
